Tested on: mice
Test: Acute toxicity study (oral, 14 days)

O=C1NC(=O)C(=Cc2cn(C[C@H](O)Cn3c4ccccc4c(=O)c4ccccc43)c3ccccc23)C(=O)N1 [(S)-3a]
ratio of kidney weight to body weight: not significantly different

Source: paper PMC6030096, “Synergy of Physico-chemical and Biological Experiments for Developing a Cyclooxygenase-2 Inhibitor” (Scientific Reports, 2018)
